Experimental data taken from patent US10334859B2, “Method and pesticidal mixtures for controlling Pentatomidae pests” (BASF SE, priority 2014, dated 2019).
Where two headings read alike, the source gives them in different places.

What was measured:
[1] = system: boll weevil (Anthonomus grandis); settings: egg and larval mortality after 5 days
[2] = system: Mediterranean fruitfly (Ceratitis capitata); settings: 160 ppm; egg and larval mortality after 5 days
[3] = system: tobacco budworm (Heliothis virescens); settings: 400 ppm; egg and larval mortality after 5 days

Work on `CC(C)(C)[C@]1(O)C[C@@H]2OC(=O)C[C@@]23C(=O)O[C@@H]2OC(=O)[C@H](O)[C@]213` [Bilobalide, (3aS,5aR,8aS,9R,10aR)-9-tert-butyl-8,9-dihydroxydihydro-9H-furo[2,3-b]furo[3′,2′;2,3]cyclopenta[1,2-c]furan-2,4,7(3H,8H)-trione] yielded an Observed efficacy ([1]; 64 ppm) of 25%, an Observed efficacy ([1]; 160 ppm) of 0% and an Observed efficacy [2] of 0%. It also gave an Observed efficacy [3] of 0%.
`CN/C(=N/CC1CCOC1)N[N+](=O)[O-]` (stereo not drawn) [Dinotefuran, dinotefuran] showed an Observed efficacy ([1]; 0.08 ppm) of 0%.
For `C[C@@H]1C(=O)O[C@H]2C[C@@]34[C@H]5C[C@@H](C(C)(C)C)[C@]36[C@@H](OC(=O)[C@@H]6O)O[C@@]4(C(=O)O5)[C@]21O` [Ginkgolide A], the Observed efficacy ([1]; 20 ppm) was 0%.
Compound abamectin has an Observed efficacy ([1]; 0.003 ppm) of 0%.
imidacloprid was tested, and the Observed efficacy ([1]; 0.8 ppm) was 25% and the Observed efficacy ([1]; 0.8 ppm, listed as Imicacloprid) was 0%.
